## Antibody variant affinities, Ab-14 heavy chain, assay B

All variants were tested on one target, the spike HR2 peptide PDVDLGDISGINAS (SARS-CoV-2).

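The parent was found by panning a naive human phage display library on the peptide. This is the validation round: designs drawn from the data on random variants, tested in the same kind of assay. Their group label is 14H_En_HC (En: ensemble of fine-tuned language models; HC: hill climbing; a sequence that several methods proposed may carry one label only). In AlphaSeq, yeast of one mating type display the scFv and yeast of the other type display the target. Binding brings cells together so that they mate, and sequencing counts the barcode pairs among the diploids. A regression on co-assayed BCL2-family reference pairs converts the normalised counts of each replicate to an apparent Kd. Mating was done six times.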

Parent: Ab-14, a human scFv built as VH, the linker GGGGSGGGGSGGGGS, VL. Only the CDRs of the heavy chain vary.
VH: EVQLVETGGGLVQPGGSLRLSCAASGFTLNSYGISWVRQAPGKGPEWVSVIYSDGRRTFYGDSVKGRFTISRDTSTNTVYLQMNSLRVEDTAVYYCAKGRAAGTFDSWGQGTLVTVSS
VL: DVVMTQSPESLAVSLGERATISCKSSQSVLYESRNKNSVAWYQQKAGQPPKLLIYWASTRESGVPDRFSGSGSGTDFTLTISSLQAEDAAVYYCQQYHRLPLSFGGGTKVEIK

Each variant is given by its three heavy chain CDRs, as the data file delimits them; those of the parent are GFTLNSYGIS, VIYSDGRRTFYGDSVK, GRAAGTFDS.
The read-out is the apparent dissociation constant on a log10 scale (nM): the lower, the stronger.
Averages over replicates are reported, and they cover detected replicates only.
A pair that was not seen in that replicate is written "n.d."; this usually means weak binding, but a binder can also be missed.
Values of this round are not directly comparable with the first-round values of the same sequences.
In the paper, a design with two or fewer of six values counts as a poor binder.
Nonspecific signal, from three strains lacking the peptide, appeared in 1% of pairings of all heavy chain designs, centred on 2.08 (5% of these signals below 0.84); values are not corrected for it. The control count says in how many pairings with the empty strains this scFv gave a signal, with their mean in brackets.
Of ten entries with the parent sequence, four were seen in most replicates (averages 0.34 to 2.37), three in one and three in none, so single entries are noisy.

| CDR-H1 | CDR-H2 | CDR-H3 | replicates, log10 nM | mean log10 Kd (nM) | empty controls |
|---|---|---|---|---|---|
| GFDLNDYGIS | VIYADGRRTFYADSVK | GETAGTFDI | -0.53 / -0.09 / -0.56 / -0.81 / -0.36 / -0.01 | -0.39 | 0/18 |
| GFDLNEYGIS | VIYADGQRTAYADSVK | GDAAGTFDS | 0.14 / -0.12 / -0.24 / -0.13 / -0.33 / 0.10 | -0.10 | 0/18 |
| GFNLNEYGIS | VIYADGKRTFYSNSVK | GEAAGTFDV | n.d. / n.d. / n.d. / n.d. / n.d. / n.d. | n.d. | 0/18 |
| GFDINEYGIS | VIYADGKRTFYADSVK | GNQAGTFDL | -0.20 / -0.34 / -0.63 / -0.37 / -0.65 / -0.54 | -0.46 | 0/18 |
| GFNLNEYGIS | VIYADGMRKFYADSVK | GNTAGTFDS | 0.01 / -0.41 / -0.09 / -0.05 / -0.20 / -0.36 | -0.18 | 0/18 |
| GFDLDEYGIS | VIYADGMRTVYADSVK | GNIAGTFDS | 0.25 / 0.41 / -0.10 / -0.02 / -0.26 / 0.24 | 0.09 | 0/18 |
| GFDLNEYGIS | VIYADGQRTFYADSVK | GQTAGTFDV | 0.02 / -0.53 / -0.48 / -0.43 / -0.57 / -0.36 | -0.39 | 0/18 |
| GFDLDEYGIS | VIYADGMRTFYADSVK | GNIAGTFDQ | -0.25 / -0.52 / -0.71 / -0.28 / -0.19 / -0.38 | -0.39 | 0/18 |
| GFDINEYGIS | VIYADGKRTFYADSVK | GQTAGTFDS | 0.08 / -0.24 / 0.04 / -0.46 / -0.16 / 0.01 | -0.12 | 0/18 |
| GFDLNEYGIS | VIYADGKRTFYADSVK | GQNAGTFDQ | n.d. / n.d. / n.d. / n.d. / 2.09 / n.d. | 2.09 | 0/18 |
| GFDLNEYGIS | VIYADGRRTAYTDSVK | GQAAGTFDL | -0.36 / -0.16 / -0.61 / -0.62 / -0.36 / -0.44 | -0.42 | 1/18 (2.06) |
| GFDLNEYGIS | VIYADGRRTFYVDSVK | GANAGTFDS | -0.61 / -0.24 / -0.42 / -0.52 / -0.82 / -0.53 | -0.53 | 0/18 |
| GFDLNEYGIS | VIYADGVRTSYKDSVK | GEAAGTFDV | -0.38 / -0.13 / -0.42 / -0.52 / -0.51 / -0.03 | -0.33 | 0/18 |
| GFDIDEYGIS | VIYADGRRTFYADSVK | GQNAGTFDV | -0.29 / -0.94 / -0.65 / -1.10 / -0.84 / -0.84 | -0.78 | 0/18 |
| GFDLNEYGIS | VIYADGRRTFYIDSVK | GENAGTFDS | 0.08 / 0.10 / 0.02 / -0.43 / 0.07 / -0.05 | -0.03 | 0/18 |
| GFDLNEYGIS | VIYADGKRTQYIDSVK | GNEAGTFDS | -0.16 / -0.36 / -0.26 / -0.09 / -0.19 / -0.29 | -0.23 | 1/18 (2.95) |
| GFNLDEYGIS | VIYADGRRTFYADSVK | GSNAGTFDT | -0.39 / -0.60 / -0.80 / -0.45 / -0.81 / -0.35 | -0.57 | 0/18 |
| GFDLNEYGIS | VIYADGRRTAYADNVK | GENAGTFDI | -0.12 / -0.40 / -0.31 / -0.61 / -0.21 / 0.15 | -0.25 | 0/18 |
| GFDLNEYGIS | VIYADGRRTFYADSVK | GEAGGTFDL | -0.21 / 0.06 / -0.29 / -0.42 / 0.00 / 0.25 | -0.10 | 0/18 |
| GFDLNEYGIS | VIYADGRRTQYIDSVK | GEQAGTFDK | 0.26 / -0.06 / -0.14 / -0.54 / -0.21 / -0.01 | -0.11 | 0/18 |
| GFDLNEYGIS | VIYADGLRTFYSDSVK | GEFAGTFDV | -0.14 / -0.19 / -0.16 / -0.48 / -0.32 / -0.14 | -0.24 | 0/18 |
| GFDLNEYGIS | VIYADGRRTAYIDSVK | GEIAGTFDV | 0.13 / -0.25 / -0.41 / -0.31 / -0.57 / -0.41 | -0.30 | 0/18 |
| GFDLNEYGIS | VIYADGSRTFYSDSVK | GNTAGTFDA | -0.33 / -0.22 / -0.23 / -0.40 / -0.42 / -0.23 | -0.31 | 0/18 |
| GFDLDEYGIS | VIYADGMRTFYTDSVK | GEAAGTFDA | -0.13 / -0.59 / -0.50 / 0.00 / n.d. / -0.48 | -0.34 | 0/18 |
| GFDLNEYGIS | VIYADGMRTQYIDSVK | GNQAGTFDS | 1.33 / 0.29 / 1.38 / 2.23 / 1.14 / 2.33 | 1.45 | 0/18 |
| GFDLNEYGIS | VIYADGRRTSYIDSVK | GNEAGTFDS | 0.42 / -0.17 / -0.68 / 0.29 / -0.30 / 1.70 | 0.21 | 0/18 |
| GFDLNEYGIS | VIYADGRRTAYSDSVK | GEAAGTFDS | 0.54 / -0.66 / -0.10 / -0.17 / -0.35 / -0.58 | -0.22 | 0/18 |
| GFDLNEYGIS | VIYADGRRTFYADSVK | GNNAGTFIV | n.d. / n.d. / n.d. / n.d. / 1.99 / n.d. | 1.99 | 0/18 |
| GFDLNEYGIS | VIYADGRRTFYSDSVK | GVNAGTFDS | -0.85 / n.d. / 1.01 / 0.72 / -0.45 / 2.11 | 0.51 | 0/18 |
| GFNLNEYGIS | VIYADGRRTFYADSVK | GNIAGTFDV | 0.10 / -0.47 / -1.24 / -0.90 / -0.68 / -0.87 | -0.68 | 0/18 |
| GFDLNEYGIS | VIYADGRRTAYSDSVK | GGNAGFFDM | n.d. / n.d. / n.d. / 4.52 / n.d. / 2.92 | 3.72 | 1/18 (2.46) |

Source: Li et al. 2023 (doi:10.1038/s41467-023-39022-2), MIT Lincoln Laboratory and A-Alpha Bio; data file from the FLAb repository.